Test results reported in patent publication US7136698B2 (priority 1996, dated 2006).

Key:
[1] = Current density and fentanyl flux: constant DC electrotransport delivery; conditions: for average transdermal fentanyl flux: 24 hours
[2] = Pulsing frequency and fentanyl flux: transdermal electrotransport delivery with pulsed current; conditions: for Rate of Fentanyl Delivery, Without Bolus Treatment / Rate of Fentanyl Delivery, After Bolus Treatment: 31% duty cycle; for Rate of Fentanyl Delivery, After Bolus Treatment: after DC bolus 30 minutes at 0.1 mA/cm^2; for fentanyl flux (FIG. 7): 100 μA/cm^2, 31% duty cycle
[3] = Current density and increased efficiency: electrotransport fentanyl delivery with or without initial high current density boluses; conditions: bolus group versus 20 μA/cm^2 constant DC group

CCC(=O)N(c1ccccc1)C1CCN(CCc2ccccc2)CC1
average transdermal fentanyl flux ([1]; applied current density 10 μA/cm^2 (50 μA)): 19 µg/h | average transdermal fentanyl flux ([1]; applied current density 20 μA/cm^2 (100 μA)): 73 µg/h | average transdermal fentanyl flux ([1]; applied current density 40 μA/cm^2 (200 μA)): 173 µg/h | increase in drug delivery rate ([1]; current increased four-fold from 50 μA to 200 μA): almost ten-fold increase | Rate of Fentanyl Delivery, Without Bolus Treatment ([2]; 1 Hz, pulse width 310 msec): 48** μg/hr | Rate of Fentanyl Delivery, After Bolus Treatment ([2]; 1 Hz, pulse width 310 msec): 48** μg/hr | Rate of Fentanyl Delivery, Without Bolus Treatment ([2]; 10 Hz, pulse width 31 msec): 52** μg/hr | Rate of Fentanyl Delivery, After Bolus Treatment ([2]; 10 Hz, pulse width 31 msec): 52** μg/hr | Rate of Fentanyl Delivery, Without Bolus Treatment ([2]; 625 Hz, pulse width 0.5 msec): 7 µg/h | Rate of Fentanyl Delivery, After Bolus Treatment ([2]; 625 Hz, pulse width 0.5 msec): 34 µg/h | fentanyl flux (FIG. 7) ([2]; pulsing frequencies 1 and 10 Hz): increased fentanyl flux | fentanyl flux (FIG. 7) ([2]; square-wave frequency 625 Hz): minimal fentanyl flux | fentanyl transdermal delivery efficiency (FIG. 5, mean serum fentanyl concentration) [3]: higher efficiency fentanyl transdermal delivery

Only a part of the results on these compounds is given; other tests are left out. Marks after values point to notes of the source that are not given here.
